From US8105608B2, “Method of treatment using ligand-immunogen conjugates” (Purdue Research Foundation, priority 2000, dated 2012)

System: M109 cells
Assay: Survival of mice with M109 cells implanted intraperitoneally close to the liver
Assay type: in vivo

## IL-2: recombinant human IL-2, cytokine to stimulate the immune system
Example 5, after 2 doses of 1500 nmol/kg folate-FITC days 4 and 7, IL-2 5000 IU days 8-12, IFN-α 2.5×10^4 U/day, IL-12 0.5 μg/day, TNF-α 2 μg/day
  long term survival, comparison of cytokine treatments: more effective at promoting long term survival of animals than was combination treatment with IL-2 and IL-12 or with IL-2 and TNF-α
Example 7, folate-FITC 1500 nmoles/kg, IL-2 5000 IU, n=8, control 18 days
  median survival time: 19 days
Example 7, folate-FITC 1500 nmoles/kg, low-dose IL-2
  effect on long-term survival of tumor-bearing mice: negligible effect
Example 10, folate-FITC 1500 nmoles/kg with IL-2 5×10^3 to 5×10^5 IU days 7, 8, 9, 11, 14, FITC-KLH immunized
  median survival time, effect of IL-2 dose: no substantial difference
